{
  "sequences": {"note": "Amino acid sequences for entries named in this document (tags omitted).", "UniProt P31645, whole entry": "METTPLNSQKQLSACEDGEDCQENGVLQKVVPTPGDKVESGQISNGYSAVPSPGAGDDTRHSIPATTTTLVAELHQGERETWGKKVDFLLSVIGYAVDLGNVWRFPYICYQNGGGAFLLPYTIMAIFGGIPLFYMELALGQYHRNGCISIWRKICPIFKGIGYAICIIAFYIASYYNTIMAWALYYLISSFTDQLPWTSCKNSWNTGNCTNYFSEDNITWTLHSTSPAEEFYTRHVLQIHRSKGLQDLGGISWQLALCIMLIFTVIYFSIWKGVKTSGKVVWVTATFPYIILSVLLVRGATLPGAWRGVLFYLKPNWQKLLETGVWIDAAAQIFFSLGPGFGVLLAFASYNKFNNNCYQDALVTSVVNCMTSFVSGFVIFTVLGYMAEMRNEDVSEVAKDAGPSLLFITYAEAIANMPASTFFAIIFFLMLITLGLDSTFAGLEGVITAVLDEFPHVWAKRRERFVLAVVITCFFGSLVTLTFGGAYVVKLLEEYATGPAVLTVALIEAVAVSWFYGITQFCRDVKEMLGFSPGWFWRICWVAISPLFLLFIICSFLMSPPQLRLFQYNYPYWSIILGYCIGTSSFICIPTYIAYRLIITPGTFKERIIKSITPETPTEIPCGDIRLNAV"},
  "source": "paper PMC7083837",
  "about": "(2020)",
  "biological_target": "SERT WT (Homo sapiens, UniProt P31645)",
  "assay": "[3H]5-HT uptake in intact COS-7 cells",
  "conditions": "IMI 4 nM, Lu AF60097 27 nM, alone or together",
  "data": [
    {"smiles": "CN(C)CCCN1c2ccccc2CCc2ccccc21", "note": "[imipramine, reference compound]", "values": [
      {"measurement": "[^3H]5-HT uptake (in % of buffer/control)", "result": "89.3 ± 0.8", "unit": "%"}
    ]}
  ]
}
